This assay has as its system IKZF1, ASS1 and SALL4 recruitment to CRBN. Description: Recruitment assessment: recruitment of any tested substrate from among IKZF1, ASS1 and SALL4. The class given is cell-based. To be noted: any tested substrate at any tested compound concentration.

Structures are written as SMILES.

The source of these data is patent US20230111853A1, “COMPOUNDS MODULATING PROTEIN RECRUITMENT AND/OR DEGRADATION” (Orionis Biosciences, Inc., priority 2019, published 2023).

In the case of `O=C1CCC(N2Cc3ccc(NC(=O)c4cnc5[nH]cnc5c4)cc3C2=O)C(=O)N1` (stereo not shown), the “Recruitment Assessment” value was “TRUE”.
